Reference: PMC11117661, “Development of a Novel In Silico Classification Model to Assess Reactive Metabolite Formation in the Cysteine Trapping Assay and Investigation of Important Substructures” (Biomolecules, 2024)

Experiment: cysteine trapping assay ([35S]cysteine, HPLC with radiomatic detector) for reactive metabolites
Conditions: human liver microsome 2 mg/mL, L-[35S]-Cysteine, NADPH, 37 °C, 2 h

With `Cc1cc2c(s1)Nc1ccccc1N=C2N1CCN(C)CC1` [Olanzapine] the RI integrated area was 4161.2 count.
